Consider one compound from ChEMBL document CHEMBL1147557, “Glycosyltransferase activity can be selectively modulated by chemical modifications of acceptor substrates” (Bioorg Med Chem Lett, 2004).

Each structure is given as a SMILES string.

The test system of the test is Alpha-(1,3)-fucosyltransferase 6 (Homo sapiens). The test is described as follows: Kinetic parameter of […] by fucosyltransferase 6 alpha 1,3.

In the case of `CO[C@@H]1O[C@@H](CO)[C@@H](O[C@@H]2O[C@@H](CO)[C@H](O)[C@H](O)[C@@H]2O)[C@H](O)[C@@H]1NC(C)=O`, the Vmax / Km stood at 2.8.
